Target: 11-beta-hydroxysteroid dehydrogenase 1 (Mus musculus) (UniProt P50172)
Experiment: Inhibition of mouse microsomal 11beta-HSD1 overexpressed in HEK293 cells using [3H]-cortisone as substrate assessed as formation of [3H]-cortisol at 10 uM using [3H]cortisone by scintillation proximity assay in presence of NADPH
Summary of the method: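 Human or mouse 11β-HSD1 inhibition measured in vitro by scintillation proximity assay (SPA). Every isolate was first screened at a single concentration of 10 μM. IC50 values were then determined for isolates giving more than 50% inhibition at that concentration. Glycyrrhetinic acid served as the positive control. Other assay conditions follow an earlier report.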

By UniProt entry, the sequences of proteins in these tests, tags left out. Where a name states a change or a piece, a line headed by the entry shows the natural chain unless it says otherwise.
UniProt P50172: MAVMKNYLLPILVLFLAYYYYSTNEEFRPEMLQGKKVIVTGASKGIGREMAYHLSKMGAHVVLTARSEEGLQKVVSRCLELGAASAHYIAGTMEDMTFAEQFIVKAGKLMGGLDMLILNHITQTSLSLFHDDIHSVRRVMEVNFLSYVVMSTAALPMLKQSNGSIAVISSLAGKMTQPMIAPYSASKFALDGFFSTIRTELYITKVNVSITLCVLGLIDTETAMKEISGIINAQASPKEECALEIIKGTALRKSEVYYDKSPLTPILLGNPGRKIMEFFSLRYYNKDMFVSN

CC(=O)O[C@H]1C[C@@]2(C)[C@H](c3ccoc3)C[C@H]3O[C@]32[C@]2(C)C(=O)C(O)=C3C(C)(C)C(=O)C=C[C@]3(C)[C@@H]12
inhibition: < 50%

Reference: ChEMBL document CHEMBL4477167, “Limonoids and Triterpenoids as 11β-HSD1 Inhibitors from Walsura robusta” (J Nat Prod, 2016)
